This assay deals with E. coli ATCC25922. In words: Salt, serum, acid and alkaline sensitivity. Format: cell-based.

For `CC[C@H](C)[C@H](NC(=O)CN)C(=O)NCC(=O)N[C@@H](C)C(=O)N[C@H](C(=O)N[C@@H](CC(C)C)C(=O)N[C@@H](CCCCN)C(=O)N[C@H](C(=O)N[C@@H](CC(C)C)C(=O)N[C@H](C(=O)N[C@H](C(=O)NCC(=O)N[C@@H](CC(C)C)C(=O)N1CCC[C@H]1C(=O)N[C@@H](C)C(=O)N[C@@H](CC(C)C)C(=O)N[C@H](C(=O)N[C@@H](CO)C(=O)N[C@@H](Cc1c[nH]c2ccccc12)C(=O)N[C@H](C(=O)N[C@@H](CCCCN)C(=O)N[C@@H](CCCNC(=N)N)C(=O)N[C@@H](CCCCN)C(=O)N[C@@H](CCCNC(=N)N)C(=O)N[C@@H](CCC(N)=O)C(=O)N[C@@H](CCC(N)=O)C(N)=O)[C@@H](C)CC)[C@@H](C)CC)[C@@H](C)O)[C@@H](C)O)C(C)C)C(C)C` [MLT, Melittin, reference compound], the “MIC, Control” value (absence of physiological salts, serum, acid and alkaline) came out at 4 µM. Further, the “MIC, FeCl3” value (in presence of 4μM FeCl3 (final)) was 4 µM. The “MIC, MgCl2” value (in presence of 1 mM MgCl2) was determined as 8 µM. The “MIC, KCl” value (in presence of 4.5 mM KCl (final)) amounted to 4 µM. For the setting “in presence of 150 mM NaCl (final)”, the “MIC, NaCl” value is 16 µM. For the same molecule, the “MIC, PH=2” value (peptide incubated at pH=2 for 4 h prior to MIC determination) came to 4 µM. In addition, the “MIC, PH=4” value (peptide incubated at pH=4 for 4 h prior to MIC determination) came out at 4 µM. For the same molecule, the “MIC, PH=10” value (peptide incubated at pH=10 for 4 h prior to MIC determination) worked out at 4 µM. The “MIC, PH=12” value (peptide incubated at pH=12 for 4 h prior to MIC determination) turned out to be 4 µM.

Source of the values: doi:10.1101/679977v1 (bioRxiv, 2019).
